Assay outcomes (PubChem BioAssay)
CBFb-RUNX1 inh = inhibitors of human CBF-beta and RUNX1 interaction; Q01196+Q13951; AlphaScreen CBFb-His/RUNX1-biotin binding, biochemical; Potency, µM (doses to about 59.8 µM), actives largely listed as inhibitors; 230,000 tested, under 10 active; active = well fitted curve in the direction sought with a large enough effect; inconclusive = small, poorly fitted or top-dose-only effect, or effect the other way, or another doubt; inactive = no such curve, though single readings can be large or run the other way
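Bead-based AlphaScreen assay; binding partners His-tagged CBF-beta and biotinylated RUNX1 at 30 nM each. Compound exposure 15 min after a 20-min protein preincubation; bead step 90 min; all steps at room temperature.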
ClpP mod = qHTS Assay for Activators of ClpP. hit rate 1.9% among 340,000. AID 651965, 2013. ATP-dependent Clp protease proteolytic subunit (Bacillus subtilis (strain 168)), P80244. Potency, µM (highest dose often 57.5 µM). purified B. subtilis ClpP, FRET peptide cleavage, 20 min; active = well fitted falling curve with a large enough effect; inconclusive = small, poorly fitted or top-dose-only effect; inactive = no such curve, though single readings can be large or run the other way; note: the source files actives as falling curves though it sought activators and does not explain the sign; nearly all actives have a fitted effect of over 65% in size
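Buffer: 100 mM Tris/HCl pH8, 100 mM KCl, 0.05% low protease BSA, 2.5% glycerol, 0.01% Tween-20. ClpP 10 microg/mL final; 20 min RT; delta FRET normalized to ADEP and DMSO controls.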
Rango release inh = prevents RanGTP from dissociating the Rango-importin beta complex. hit rate 0.071% among 340,000. Potency, µM (titrated, usually from 46.1 µM). AID 540253. Biochemical FRET Rango-importin beta, RanGTP-induced dissociation. O95149+P62826; note: nearly all actives have a fitted effect of over 45% in size
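Compounds preincubate 5 min with complex of recombinant Rango and importin beta in PBS with 1 mM DTT. Ran (0.6 uM) loaded with 2 mM GTP plus 0.2 uM RCC1 starts dissociation; FRET is recorded 45 min later.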
Rango-impB inh = Rango-importin beta binding inhibition. Rango CFP/YFP FRET sensor + importin beta, 45 min. Q14974. Potency, µM (series often up to 92.2 µM). hit rate 0.031% among 340,000; note: nearly all actives have a fitted effect of over 15% in size
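FRET biosensor Rango (snurportin 1 IBB between N-terminal EYFP and C-terminal Cerulean), 50 nM in PBS/1 mM DTT/0.02% Tween-20/0.1% BSA, preincubated 5 min RT with compound; 0.125 microM importin beta added, 45 min RT, CFP/YFP FRET ratio read.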
MBNL1 CUG block = MBNL1-poly(CUG) RNA binding inhibition | Q9NR56 | TR-FRET MBNL1-His/biotin-(CUG)12 binding, 665/545 ratio | Potency, µM (titrated, usually from 57.5 µM), usual class: inhibitors | hit rate 0.036% among 280,000; active = well fitted inhibition curve with a large enough effect in the signal ratio, with a control signal flat, not every such curve was filed as active; inconclusive = small, poorly fitted or top-dose-only effect, or effect the other way, or a change in a side signal; inactive = no such curve, though single readings can be large or run the other way; the % refers to the signal ratio
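Compounds (final 92 nM to 58 uM) are added to His-tagged MBNL1 and biotin-(CUG)12, then terbium anti-His antibody and streptavidin-XL665 (5 nM final). After 60 min at room temperature, the 665/545 nm ratio is read.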
A number is an active result. Only a selection was taken, and hits are over-represented in it overall. Unless noted, calls come from the whole dose curve.

Chains of the proteins cited; added tags and fusions are not shown.
ATP-dependent Clp protease proteolytic subunit (Bacillus subtilis (strain 168)), P80244, UniProt P80244, whole entry, looked up: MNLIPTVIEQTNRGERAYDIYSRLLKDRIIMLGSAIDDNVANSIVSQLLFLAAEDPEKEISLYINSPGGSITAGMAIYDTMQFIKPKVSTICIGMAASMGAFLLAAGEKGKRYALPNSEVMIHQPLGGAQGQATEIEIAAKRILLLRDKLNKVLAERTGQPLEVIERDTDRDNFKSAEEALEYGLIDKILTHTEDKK

CCOc1ccc(CN2CCNC(=O)C2CC(=O)NCCc2cnccn2)cc1 (stereo unspecified) was read as ClpP mod inactive, Rango release inh inactive, Rango-impB inh inconclusive and MBNL1 CUG block inactive.
`CCOc1ccc(CN2CCNC(=O)C2CC(=O)NCc2csc(C)n2)cc1` (stereo unspecified) gave ClpP mod 28µM, Rango release inh inactive, Rango-impB inh inconclusive and MBNL1 CUG block inactive.
Screening COc1ccccc1CNC(=O)CCCCn1c(=O)c2ccccc2n(Cc2ccccc2F)c1=O returned ClpP mod inactive.
Screening Cn1c(=O)c2cc(S(=O)(=O)NC(Cc3ccccc3)C(=O)Nc3ccc(F)cc3)ccc2n(C)c1=O (stereo unspecified) returned ClpP mod inactive.
Screening CC(=O)N1CCN(c2ccc(NCc3ccc(-c4cccc(Cl)c4)o3)cc2)CC1 returned Rango release inh 12µM and Rango-impB inh inconclusive.
Screening CC(=O)N1CCN(c2ccc(NCc3ccco3)cc2)CC1 returned Rango release inh inactive and Rango-impB inh inactive.
`Cc1ccc(Cn2c(C)c(CNC(C)c3ccccc3)c(C(=O)O)c2C)cc1` (stereo unspecified) gave ClpP mod inactive.
Screening COc1ccccc1OCC(=O)N1CCC2(CC1)CC(=O)c1ccccc1O2 returned ClpP mod 22µM, Rango release inh inactive and Rango-impB inh inactive.
`O=C1CC2(CCN(C(=O)COc3ccccc3F)CC2)Oc2ccccc21` gave ClpP mod inconclusive, Rango release inh inactive and Rango-impB inh inactive.
CCOC(=O)N1CCN(C(=O)COc2ccc3c(c2)C(=O)CC2(CCN(C(C)=O)CC2)O3)CC1 was read as CBFb-RUNX1 inh inactive, ClpP mod 16µM, Rango release inh inactive, Rango-impB inh inactive and MBNL1 CUG block inactive.
COCCCNC(=O)c1oc2c(c1C)-c1nn(Cc3cccc(Cl)c3)cc1CC2 was read as ClpP mod inactive.
`CC(=O)Nc1ccc(NC(=O)c2oc3c(c2C)-c2nn(Cc4ccccc4Cl)cc2CC3)cc1` gave ClpP mod 20µM.
`COCCCNC(=O)c1oc2c(c1C)-c1nn(Cc3ccc(Cl)cc3)cc1CC2` gave ClpP mod 32µM.
Screening CCN(CC)CCCNC(=O)c1oc2c(c1C)-c1nn(Cc3ccc(Cl)cc3)cc1CC2 returned ClpP mod 16µM.
Cc1ccc(CNC(=O)c2oc3c(c2C)-c2nn(Cc4ccc(Cl)cc4)cc2CC3)cc1 was read as ClpP mod inactive.
Screening COc1cccc(C(C(=O)NCc2ccccc2)N2CCN(C(=O)C3CCCO3)CC2)c1OC (stereo unspecified) returned ClpP mod inactive.
`COC(=O)c1cccc(NC(=O)c2cccnc2)c1` gave CBFb-RUNX1 inh inactive, ClpP mod 14µM, Rango release inh inactive, Rango-impB inh inactive and MBNL1 CUG block inactive.
`COc1ccc(-n2nc3cc(C)c(NC(=O)c4cccnc4)cc3n2)cc1` gave CBFb-RUNX1 inh inactive, ClpP mod 25µM, Rango release inh inactive, Rango-impB inh inactive and MBNL1 CUG block inactive.
COC(=O)c1ccc(NC(=O)c2cccnc2)cc1 was read as ClpP mod inactive, Rango release inh inactive, Rango-impB inh inactive and MBNL1 CUG block inactive.
CCCC(=O)Nc1cc2nn(-c3ccc(OC)cc3)nc2cc1C was read as ClpP mod inactive.
Cc1cccc(Oc2sc(C(=O)c3ccccc3)c(N)c2C#N)c1 was read as CBFb-RUNX1 inh inactive, ClpP mod 14µM, Rango release inh inactive, Rango-impB inh inactive and MBNL1 CUG block inactive.
O=C(c1ccccc1)N1N=C(c2cccs2)CC1c1ccccc1O (stereo unspecified) was read as ClpP mod inactive, Rango release inh inactive, Rango-impB inh inactive and MBNL1 CUG block inactive.
Screening COC(=O)c1ccc(C2N=C(c3cccs3)CC(c3ccccc3O)N2)cc1 (stereo unspecified) returned CBFb-RUNX1 inh inactive, Rango release inh 15µM, Rango-impB inh inconclusive and MBNL1 CUG block inactive.
`COc1cc2c(cc1OC)C(c1ccc(Cl)cc1)N(c1cccc(C#N)c1)C(=O)C2` (stereo unspecified) gave ClpP mod inactive.
`CCN(CC(=O)NCc1cccs1)C(=O)/C=C/c1cc(OC)c(OC)c(OC)c1` gave ClpP mod 16µM, Rango release inh inactive and Rango-impB inh inactive.
CCN(CC(=O)NCc1cccs1)C(=O)c1ccc(S(=O)(=O)N(C)c2ccccc2)cc1 was read as ClpP mod 22µM, Rango release inh inactive and Rango-impB inh inactive.
COc1ccc(S(=O)(=O)Nc2cccc(-c3ccc(N4CCCCCC4)nn3)c2)cc1 was read as ClpP mod inactive.
`O=C(NN1C(=O)/C(=C/c2cccc(O)c2)SC1=S)c1ccccc1O` gave ClpP mod inactive, Rango release inh inactive, Rango-impB inh inactive and MBNL1 CUG block inconclusive.
`O=C(NN1C(=O)/C(=C/c2ccc(O)c(O)c2)SC1=S)c1ccccc1` gave Rango release inh inconclusive, Rango-impB inh 37µM and MBNL1 CUG block inconclusive.
Screening COc1cc(/C=C2\SC(=S)N(Nc3ccccc3)C2=O)ccc1O returned CBFb-RUNX1 inh inactive, ClpP mod 28µM, Rango release inh inactive and Rango-impB inh 37µM.
`O=C1/C(=C/c2ccc(O)c(O)c2)SC(=S)N1Nc1ccccc1` gave Rango release inh inactive, Rango-impB inh 37µM and MBNL1 CUG block inconclusive.
`CCOc1cc(/C=C2\SC(=S)N(Nc3ccccc3)C2=O)ccc1O` gave CBFb-RUNX1 inh inconclusive, ClpP mod inactive, Rango release inh inconclusive, Rango-impB inh inactive and MBNL1 CUG block inconclusive.
`CCOC(=O)c1cc(-c2ccc(C)cc2)n(CC(=O)Nc2ccc(OC)cc2OC)c1C` gave ClpP mod inactive.
Screening CN(C)c1nc(-c2ccccc2)c2cnn(Cc3ccccc3)c2n1 returned CBFb-RUNX1 inh inconclusive, ClpP mod 28µM, Rango release inh inactive, Rango-impB inh inconclusive and MBNL1 CUG block inactive.
For Cc1cc2nc(C)c(Cc3ccccc3)c(=O)n2[nH]1 the results were CBFb-RUNX1 inh inactive, ClpP mod 14µM, Rango release inh inactive, Rango-impB inh inactive and MBNL1 CUG block inactive.
Screening Cc1nc2c(-c3ccccc3)c[nH]n2c(=O)c1Cc1ccccc1 returned CBFb-RUNX1 inh inactive, Rango release inh inactive, Rango-impB inh inactive and MBNL1 CUG block inactive.
Screening NS(=O)(=O)c1cccnc1Nc1c(Cl)cccc1Cl returned CBFb-RUNX1 inh inactive, ClpP mod 28µM, Rango release inh inactive, Rango-impB inh inactive and MBNL1 CUG block inactive.
For O=C(OC[C@@H]1CCCN2CCCC[C@H]12)c1cc2ccccc2oc1=O the results were CBFb-RUNX1 inh inactive, ClpP mod 25µM, Rango release inh inconclusive, Rango-impB inh inactive and MBNL1 CUG block inconclusive.
